Ab-14 heavy chain CDR variants: yeast mating affinities

Binding partner: SARS-CoV-2 spike HR2 peptide, sequence PDVDLGDISGINAS.

Ab-14 is the parent antibody, in scFv form: VH, then three GGGGS repeats, then VL. The light chain is unchanged in all variants.
VH: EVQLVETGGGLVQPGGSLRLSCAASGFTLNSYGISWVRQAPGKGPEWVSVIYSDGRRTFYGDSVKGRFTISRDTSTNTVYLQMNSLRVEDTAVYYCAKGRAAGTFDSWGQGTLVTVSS
VL: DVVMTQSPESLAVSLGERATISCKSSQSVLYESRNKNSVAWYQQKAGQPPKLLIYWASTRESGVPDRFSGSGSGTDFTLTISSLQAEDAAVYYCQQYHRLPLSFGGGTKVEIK

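Phage display of a naive human antibody library on the peptide gave the parent. In library AAYL49, one, two or three CDR residues were substituted; doubles and triples were drawn at random. Affinity was read by AlphaSeq, a pooled yeast mating assay with surface-displayed partners. Binding brings cells together so that they mate, and sequencing counts the barcode pairs among the diploids. The ratio of observed to expected reads was calibrated, replicate by replicate, on BCL2-family standards whose Kd was known from biolayer interferometry. There are three technical replicates.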

The parent's heavy chain CDRs are GFTLNSYGIS, VIYSDGRRTFYGDSVK, GRAAGTFDS; each variant's own CDRs replace them letter for letter. Values are log10 of the apparent Kd in nM; lower means stronger binding. Replicates are averaged; those with no signal do not enter the mean. A pair that was not seen in that replicate is written "ND"; this usually means weak binding, but a binder can also be missed.

Variant TFTLNSYGIS, VTYSDGRRTFYGDSVK, GRAAGTFDH gave ND, ND, ND (controls 0 of 9).
Variant GFTLNSYLIS, VIYSDGRRTFYGDDVK, GRAAWTFDS gave ND, ND, ND (controls 0 of 9).
Variant GGTLNKYGIS, VILSDGRRTFYGDSVK, GRAAGTFDS gave ND, 3.26, 5.03 (mean 4.14; controls 6 of 9).
Variant GFTLNSYGIS, VIMSDGRRTFYGDSVK, GRSAGTFDK gave ND, ND, ND (controls 1 of 9).
Variant GFMLNSYGIS, VIYSDGRRTFYGDSVK, GFAASTFDS gave ND, ND, ND (controls 0 of 9).
Variant DFTLNSYGIS, VIYSDGRATFYGDSVK, GRAAGQFDS gave ND, ND, ND (controls 1 of 9).
Variant GFTLNSLGIG, VIYSDGRRGFYGDSVK, GRAAGTFDS gave 3.85, ND, ND (controls 4 of 9).
Variant GFTNNSYGIS, VIYSDGRRTFYGDSVK, GRAAGTDWS gave ND, ND, ND (controls 0 of 9).
Variant GFTLNSYGLS, VIYSDGRRTAYGDSVK, GRAAGTQDS gave 1.21, 1.39, 1.70 (mean 1.43; controls 2 of 9).
Variant GFTLNSYKIS, VIYSDGRRTFYGDSVK, GRAAGTFQS gave ND, ND, ND (controls 3 of 9).
Variant GFTLNSYGIS, PIYSDGVRTFYGDSVK, GRAAGTFDS gave ND, 3.93, 4.50 (mean 4.22; controls 1 of 9).
Variant GFGLNSYGIS, VIYPDGRRTFYGDSVK, GRAAGHFDS gave 1.33, 1.32, 1.20 (mean 1.29; controls 2 of 9).
Variant GFQGNSYGIS, VIYSDGRRTFYGDSVK, GRAAYTFDS gave ND, ND, ND (controls 0 of 9).
Variant TRKLNSYGIS, VIYSDGRRTFYGDSVK, GRAAGTFDS gave ND, ND, ND (controls 1 of 9).
Variant TFTLNSYGIS, DIYSDGRRTFYGDSLK, GRAAGTFDS gave ND, ND, ND (controls 2 of 9).
Variant GFTLNSYEIS, VIYSDGRRTFAGDSVK, KRAAGTFDS gave ND, ND, ND (controls 0 of 9).
Variant GFTLNSYGSS, VIYSDGRRTFYIDSVK, GRAAGTWDS gave ND, ND, ND (controls 0 of 9).
Variant GFTLNSYGIS, VIYSDGRRTVYTDAVK, GRAAGTFDS gave 1.33, 1.32, 1.25 (mean 1.30; controls 3 of 9).
Variant GFTLNSYGIS, VIYSDGKTTFYGDSVK, GRRAGTFDS gave 2.46, 2.00, ND (mean 2.23; controls 0 of 9).
Variant GFTLNSYGIH, VIYSDGRRTFYGDSVK, GRCAGTFSS gave ND, ND, ND (controls 0 of 9).
Variant GFTLNSYGIS, VIYSDGRRTKRGDSVQ, GRAAGTFDS gave ND, ND, 4.83 (controls 2 of 9).
Variant AFTLNSYGIS, VIASDGRRLFYGDSVK, GRAAGTFDS gave 4.74, ND, 4.61 (mean 4.68; controls 4 of 9).
Variant YFTLHSYGIS, VIYSDGRRTFYGDSVK, GRVAGTFDS gave 2.21, 2.17, 1.79 (mean 2.06; controls 1 of 9).
Variant GFTLNSYGES, VIYSDGRRTFYGDSVK, WRATGTFDS gave ND, ND, ND (controls 0 of 9).
Variant GFTLNSYPIS, VIYSDGRPTFYGDSVK, GMAAGTFDS gave 3.59, 4.12, 5.70 (mean 4.47; controls 3 of 9).
Variant GFTLNSYQIS, VIYSDGRRTFYGDSVK, GRAAQHFDS gave ND, ND, ND (controls 1 of 9).
Variant GFTVNSYGIS, VYYSDGRRTFYGDSVK, GQAAGTFDS gave 1.89, 1.81, 2.06 (mean 1.92; controls 6 of 9).
Variant GFTLNSYDIS, VPYSDGRRTFYGDSVI, GRAAGTFDS gave ND, ND, 4.01 (controls 1 of 9).
Variant GFTLNSRGIS, VIYSDGRRTFYGSSVK, GRACGTFDS gave ND, ND, ND (controls 0 of 9).
Variant GFTLNSYGIS, VIYSDGRRTFAGGSVK, GRAAGTFAS gave ND, ND, ND (controls 3 of 9).
Variant GFTLNSYSIY, VIYSDGRRTFYGDSVK, GRAAGTFDS gave ND, 3.62, 4.46 (mean 4.04; controls 0 of 9).
Variant GFTLNSYGIS, VVYSDGRRTFYEDHVK, GRAAGTFDS gave ND, ND, ND (controls 0 of 9).
Variant GNTLNSYGIS, VIYSDGRRTFYGDSVK, GQKAGTFDS gave 1.57, 1.57, 1.86 (mean 1.67; controls 1 of 9).
Variant GFTLNSYGIS, VGYSWGRRLFYGDSVK, GRAAGTFDS gave ND, ND, ND (controls 1 of 9).
Variant GFTLNSYGIS, RIYSDGRRTFYWESVK, GRAAGTFDS gave ND, ND, ND (controls 2 of 9).
Variant GFTLNGYGIS, RIYSDHRRTFYGDSVK, GRAAGTFDS gave ND, ND, ND (controls 2 of 9).
Variant GFTQNSYGIS, VIYSDGRRTFYGDSVH, GRQAGTFDS gave ND, ND, ND (controls 0 of 9).
Variant GLTLNTYGIS, VIYSDGRRTFYGDSVK, GRAAGTFDV gave 1.74, 1.73, 1.91 (mean 1.79; controls 1 of 9).
Variant GWTLNSYGIS, VIYTDKRRTFYGDSVK, GRAAGTFDS gave ND, ND, ND (controls 0 of 9).
Variant GFTLNSYGIS, VIYSQGRRTFYGDSVK, GRAAGTFFH gave ND, ND, ND (controls 1 of 9).
Variant GFTLTSYGIS, VIYSDGRRTFYGDSVK, GRLAGTFDS gave ND, ND, 3.27 (controls 0 of 9).
Variant GFTLNSYGKS, VIKSDGRRTFYGDSPK, GRAAGTFDS gave ND, ND, ND (controls 0 of 9).
Variant GFTLNSYGIS, VIYSDGRRTFYGDSVW, GRIAGHFDS gave 4.15, ND, 5.35 (mean 4.75; controls 0 of 9).
Variant GFTLNSYGII, VIYSDGRRTFYGDSVK, GRDAGTFDS gave ND, 2.87, ND (controls 3 of 9).
Variant GFYLNSYGIS, FIYSDGRRTFYGDSKK, GRAAGTFDS gave ND, ND, ND (controls 2 of 9).

Picked from the list: the 5 lowest averages where every replicate gave a value.

GFGLNSYGIS, VIYPDGRRTFYGDSVK, GRAAGHFDS: 1.33, 1.32, 1.20 (mean 1.29; controls 2 of 9).
GFTLNSYGIS, VIYSDGRRTVYTDAVK, GRAAGTFDS: 1.33, 1.32, 1.25 (mean 1.30; controls 3 of 9).
GFTLNSYGLS, VIYSDGRRTAYGDSVK, GRAAGTQDS: 1.21, 1.39, 1.70 (mean 1.43; controls 2 of 9).
GNTLNSYGIS, VIYSDGRRTFYGDSVK, GQKAGTFDS: 1.57, 1.57, 1.86 (mean 1.67; controls 1 of 9).
GLTLNTYGIS, VIYSDGRRTFYGDSVK, GRAAGTFDV: 1.74, 1.73, 1.91 (mean 1.79; controls 1 of 9).

For reference, the parent read 0.65 as the reference entry and 4.11 (one replicate of three) as a member of this library. As a blank, each scFv also met three strains without target: over library AAYL49, 15% of these pairings were detected, typically at 4.06 and seldom below 2.83. The control count says in how many pairings with the empty strains this scFv gave a signal.

From the AlphaSeq antibody data of Engelhart et al. 2022 (doi:10.1038/s41597-022-01779-4), copy in the FLAb collection.